Values quoted from earlier work, collected in paper PMC6976901 (Toxicology Reports, 2020).
Like-named read-outs stand apart in the source and are kept apart here.

System: liver (hepatotoxicity)
Settings: Hazard Evaluation Support System Integrated Platform, cited from earlier work

Row | Compound | hepatic NOEL (Table 1) [mg/kg/day] | hepatic NOEL (Table 2) [mg/kg/day]
1 | Nc1cccc(S(=O)(=O)O)c1 [3-aminobenzenesulfonic acid] | 1000 | –
2 | O=S(=O)(c1ccc(O)cc1)c1ccc(O)cc1 [bisphenol S] | – | 200
